SMILES strings stand for the structures. This is a selection; strong and weak results do not stand in their true shares. The source made the active and inactive calls.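 The calls were made as follows: active = B-score of calcium response area above 5 SD of library B-scores, with initial fluorescence ratio within 5 SD of library; inactive = the rest.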

Amino acid sequences for entries named in this document (tags omitted).
UniProt Q9QUQ5, whole entry: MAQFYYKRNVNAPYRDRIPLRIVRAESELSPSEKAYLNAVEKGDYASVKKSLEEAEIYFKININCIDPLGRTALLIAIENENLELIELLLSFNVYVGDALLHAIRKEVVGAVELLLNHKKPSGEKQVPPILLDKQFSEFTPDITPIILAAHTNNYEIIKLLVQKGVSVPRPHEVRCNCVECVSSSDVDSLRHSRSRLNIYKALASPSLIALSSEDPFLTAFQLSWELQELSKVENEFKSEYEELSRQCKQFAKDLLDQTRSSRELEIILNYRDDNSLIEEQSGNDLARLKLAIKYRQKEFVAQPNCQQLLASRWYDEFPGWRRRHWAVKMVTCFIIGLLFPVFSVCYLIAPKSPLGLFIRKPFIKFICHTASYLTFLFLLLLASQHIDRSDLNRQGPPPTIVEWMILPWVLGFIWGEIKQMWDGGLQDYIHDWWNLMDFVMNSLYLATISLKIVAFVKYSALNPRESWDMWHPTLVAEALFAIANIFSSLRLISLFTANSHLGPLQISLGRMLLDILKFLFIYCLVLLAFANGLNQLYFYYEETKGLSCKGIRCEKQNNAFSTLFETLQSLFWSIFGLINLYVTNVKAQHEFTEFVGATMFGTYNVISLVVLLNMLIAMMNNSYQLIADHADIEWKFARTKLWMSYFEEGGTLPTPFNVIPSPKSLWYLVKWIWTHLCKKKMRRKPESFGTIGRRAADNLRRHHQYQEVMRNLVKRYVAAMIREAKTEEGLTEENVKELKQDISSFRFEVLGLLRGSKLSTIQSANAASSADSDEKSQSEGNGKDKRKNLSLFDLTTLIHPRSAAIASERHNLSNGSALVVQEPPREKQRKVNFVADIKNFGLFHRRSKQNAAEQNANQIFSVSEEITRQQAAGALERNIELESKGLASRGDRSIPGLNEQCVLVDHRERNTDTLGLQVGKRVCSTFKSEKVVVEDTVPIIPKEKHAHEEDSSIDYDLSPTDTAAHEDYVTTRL

Results on 59 compounds are retold here after PubChem BioAssay AID2227 (Johns Hopkins Ion Channel Center, 2009).

The experiment deals with Short transient receptor potential channel 4 (Mus musculus) (UniProt Q9QUQ5). Kind of experiment: TRPC4 channel potentiators under submaximal DAMGO – cell-based, mouse TRPC4beta, HEK293 mu-opioid, Fluo-4 calcium, primary screen (AID 2227). The note with it: DAMGO EC20, Fluo-4 Ca2+ flux, at 10 µM.
As for `O=C(NCC1(N2CCCCC2)CCCCC1)c1ccc(F)cc1`, the result was inactive.
To `CCOC(=O)N1CCC(Nc2ccc(F)cc2)CC1` belongs “inactive”; to `COc1ccc(NC2CCN(CCc3ccccc3)CC2)c(OC)c1`, “inactive”.
To `CCOc1ccc(C)cc1CN(CCCl)CCCl` belongs “inactive”.
To `COc1cc(C(=O)NCC2(N(C)C)CCCCC2)ccc1OC(F)F` belongs “inactive”; to `CCOC(=O)N1CCC(Nc2cccc(C)c2)CC1`, “inactive”; to `Cc1ccc(OCC(C)C)c(CN(CCCl)CCCl)c1`, “inactive”.
As for `CSc1ccccc1C(=O)NCC1(N2CCCCC2)CCCCC1`, the outcome was inactive.
Under `O=C(NCC1(N2CCCCC2)CCCCC1)c1ccc(=O)[nH]c1` stands “inactive”; under `O=C(NCC1(N2CCCCC2)CCCCC1)c1cccs1`, “inactive”.
To `COc1ccc(C(=O)NCC2(N3CCCCC3)CCCCC2)cc1` belongs “inactive”; to `COc1ccc(C(=O)NCC2(N3CCCCC3)CCCCC2)c(OC)c1OC`, “inactive”.
To `CC(C)(C)OC(=O)N1CCC(N(C(=O)c2ccccc2)c2ccc(F)cc2)CC1` belongs “inactive”.
As to `CCOC(=O)N1CCC(Nc2ccc(OC)cc2)CC1`, the outcome was inactive.
To `O=C(OC1CN2CCC1CC2)C1c2ccccc2Oc2ccccc21` (centres undefined) belongs “inactive”; to `N#CC1(Nc2ccccc2)CCN(Cc2ccccc2)CC1`, “inactive”; to `O=C(NCC1(N2CCOCC2)CCCCC1)c1cc2ccccc2o1`, “inactive”.
For the compound `O=C(NCC1(N2CCCCC2)CCCCC1)c1ccc(Cl)nc1`, the result was inactive.
On to `Cc1cc(C)cc(N(C(=O)c2ccccc2)C2CCN(C(=O)OC(C)(C)C)CC2)c1`, for which the outcome was inactive.
For the compound `COc1cc(OC)c(C(=O)NCC2(N(C)C)CCCCC2)cc1OC`, the outcome was inactive.
Under `COc1ccc(CN(CCCl)CCCl)cc1Cl` stands “inactive”.
To `CN(C)c1cccc(C(=O)NCC2(N3CCCCC3)CCCCC2)c1` belongs “inactive”; to `CC(C)c1ccc(NC2CCN(C(=O)OC(C)(C)C)CC2)cc1`, “inactive”; to `CCCOc1ccc(C(=O)NCC2(N(C)C)CCCCC2)cc1OC`, “inactive”.
`CN1CCC(Nc2cccc(F)c2)CC1`: the outcome was inactive.
To `O=C(NCC1(N2CCCCC2)CCCCC1)c1cccc([N+](=O)[O-])c1` belongs “inactive”.
To `CCN1CCC(Nc2ccc(Cl)cc2)CC1` belongs “inactive”; to `N#CC1(Nc2ccccc2)CCN(CCc2ccccc2)CC1`, “inactive”.
For `O=C(NCC1(N2CCCCC2)CCCCC1)c1ccc(OC(F)F)cc1`, the outcome was inactive.
To `COc1ccc(NC2CCN(C(=O)OC(C)(C)C)CC2)cc1` belongs “inactive”; to `CN1CCN(CCOC(=O)C(O)(c2ccccc2)c2ccccc2)CC1`, “inactive”; to `O=C(NCC1(N2CCOCC2)CCCCC1)c1cc(=O)[nH]c2ccccc12`, “inactive”.
To `COc1cc(C(=O)NCC2(N3CCCCC3)CCCCC2)ccc1OC(F)F` belongs “inactive”.
Turning to `O=C(NCC1(N2CCCCC2)CCCCC1)c1cccc(C(F)(F)F)c1`, the result was inactive.
To `CC(C)(C)OC(=O)N1CCC(N(C(=O)c2ccccc2)c2ccc(Cl)cc2)CC1` belongs “inactive”.
Under `N#Cc1ccc(C(=O)NCC2(N3CCCCC3)CCCCC2)cc1` stands “inactive”.
To `c1ccc(CN2CCC(Nc3ccccc3)CC2)cc1` belongs “inactive”; to `CCCN1CCC(Nc2cc(OC)cc(OC)c2)CC1`, “inactive”; to `CN(C)C1(CNC(=O)c2cccc(C#N)c2)CCCCC1`, “inactive”.
With `COc1ccc(C(=O)NCC2(N3CCOCC3)CCCCC2)cc1OC`, the outcome was inactive.
Under `O=C(OC1CN2CCC1CC2)C1c2ccccc2C=Cc2ccccc21` (centres undefined) stands “inactive”; under `CCc1cc(C(=O)NCC2(N3CCCCC3)CCCCC2)sc1C`, “inactive”; under `N/C(=N\O)c1c(N)no[n+]1[O-]`, “inactive”.
To `CCOC(=O)N1CCC(Nc2ccc(C)cc2)CC1` belongs “inactive”; to `CCCOc1ccc(C(=O)NCC2(N(C)C)CCCCC2)cc1`, “inactive”; to `CC(C)(C)OC(=O)N1CCC(Nc2ccccc2)CC1`, “inactive”.
Under `O=C(O)C1(Nc2ccccc2)CCN(Cc2ccccc2)CC1` stands “inactive”; under `CCOc1ncccc1C(=O)NCC1(N2CCOCC2)CCCCC1`, “inactive”.
With `CN1CCC(Nc2ccc(F)c(Cl)c2)CC1`, the outcome was inactive.
Under `CCCOc1ccc(C)cc1CN(CCCl)CCCl` stands “inactive”; under `CN1CCC(Nc2ccc(Cl)cc2)CC1`, “inactive”.
For the compound `CCC(CO)(C(=O)OC1CN2CCC1CC2)c1ccccc1` (centres undefined), the result was inactive.
To `COc1cccc(C(=O)N(c2cc(C)cc(C)c2)C2CCN(C(=O)OC(C)(C)C)CC2)c1` belongs “inactive”.
To `COc1cc(OC)cc(C(=O)NCC2(N3CCOCC3)CCCCC2)c1` belongs “inactive”; to `Cc1ccc(C(=O)NCC2(N3CCCCC3)CCCCC2)o1`, “inactive”.
To `Fc1ccccc1NC1CCN(Cc2ccccc2)CC1` belongs “inactive”; to `COc1cc(OC)cc(C(=O)NCC2(N3CCCCC3)CCCCC2)c1`, “inactive”.
`CN(C)c1ccc(C(=O)NCC2(N3CCCCC3)CCCCC2)cc1`: the result was inactive.
On to `CCN1CCC(Nc2cccc(F)c2)CC1`, for which the outcome was inactive.
